# Laboratory results from PubChem BioAssay AID1224863 (Southern Research Institute, 2016).
# The chains behind the UniProt entries cited, without tags or fusion partners. A line that says so, or that is headed by a name, gives the form on record, which may keep a tag or linker.
# UniProt P13569, with tags, fused parts or gaps F508del: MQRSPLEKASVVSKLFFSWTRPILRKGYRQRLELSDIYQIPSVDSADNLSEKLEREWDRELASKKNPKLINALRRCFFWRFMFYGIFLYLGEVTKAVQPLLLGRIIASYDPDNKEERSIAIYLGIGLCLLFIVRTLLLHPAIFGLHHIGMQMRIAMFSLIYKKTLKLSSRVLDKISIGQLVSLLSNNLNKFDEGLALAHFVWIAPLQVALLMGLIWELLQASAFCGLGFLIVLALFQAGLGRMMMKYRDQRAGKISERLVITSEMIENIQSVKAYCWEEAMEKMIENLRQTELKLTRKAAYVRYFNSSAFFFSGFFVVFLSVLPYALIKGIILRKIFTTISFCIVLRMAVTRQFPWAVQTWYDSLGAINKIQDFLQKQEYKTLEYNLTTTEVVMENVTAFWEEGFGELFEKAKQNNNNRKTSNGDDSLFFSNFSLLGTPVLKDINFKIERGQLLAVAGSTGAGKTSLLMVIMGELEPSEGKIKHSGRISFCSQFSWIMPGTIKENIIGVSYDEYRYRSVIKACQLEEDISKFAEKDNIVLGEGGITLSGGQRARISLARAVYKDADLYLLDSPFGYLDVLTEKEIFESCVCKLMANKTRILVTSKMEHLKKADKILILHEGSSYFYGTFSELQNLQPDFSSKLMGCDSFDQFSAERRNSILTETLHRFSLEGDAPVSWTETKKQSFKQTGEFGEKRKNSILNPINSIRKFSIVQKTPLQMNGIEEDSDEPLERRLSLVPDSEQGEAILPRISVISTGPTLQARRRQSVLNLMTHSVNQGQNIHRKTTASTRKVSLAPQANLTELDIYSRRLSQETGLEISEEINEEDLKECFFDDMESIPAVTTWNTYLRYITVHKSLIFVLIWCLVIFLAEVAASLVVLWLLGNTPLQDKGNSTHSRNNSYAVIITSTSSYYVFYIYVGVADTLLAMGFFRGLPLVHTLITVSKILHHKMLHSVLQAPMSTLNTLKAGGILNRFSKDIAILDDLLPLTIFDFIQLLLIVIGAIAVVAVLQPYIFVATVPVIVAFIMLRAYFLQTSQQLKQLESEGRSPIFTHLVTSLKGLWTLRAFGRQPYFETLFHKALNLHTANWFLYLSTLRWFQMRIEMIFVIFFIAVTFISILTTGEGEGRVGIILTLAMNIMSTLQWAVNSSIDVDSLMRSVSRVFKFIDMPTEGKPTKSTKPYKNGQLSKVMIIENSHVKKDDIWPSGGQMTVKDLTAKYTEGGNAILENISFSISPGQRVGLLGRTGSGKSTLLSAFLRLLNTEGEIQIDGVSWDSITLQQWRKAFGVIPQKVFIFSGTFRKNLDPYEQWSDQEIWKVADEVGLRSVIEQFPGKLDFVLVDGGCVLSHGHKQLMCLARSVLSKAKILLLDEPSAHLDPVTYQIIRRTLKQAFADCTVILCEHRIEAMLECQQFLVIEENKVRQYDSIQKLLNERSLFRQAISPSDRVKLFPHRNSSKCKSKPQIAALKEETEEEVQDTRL
# Where “and” joins values, the source holds several entries; their conditions need not be identical. Identical values can stand only once. Out of some 10,000 compounds screened, about 15 (0.1%) were called active.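 How the source made its calls: active means highest signal at least 8 times the median of untreated cell-only control wells at some dose; inactive means the rest.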 These entries were drawn from the full list.
# Tests used:
# [1] = total CFTR protein upregulators, primary screen, cell-based, HeLa F508del-CFTR, immunofluorescence, viability (AID 1224863); conditions: 24 h, stronger effect = higher value; min viability: measured here: HeLa viability, alamarBlue, dose 20, library dosed in µg/mL unless noted; viability: measured here: primary viability 10 ug/mL, library dosed in µg/mL unless noted;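 on fold increase: total CFTR protein by anti-CFTR immunofluorescence in fixed cells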;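 on max fold increase: total CFTR protein by anti-CFTR immunofluorescence in fixed cells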
# [2] = target: Cystic fibrosis transmembrane conductance regulator (Homo sapiens) (UniProt P13569); test: as above; conditions: 24 h; fold increase: measured here: primary screen 10 ug/mL, library dosed in µg/mL, stronger effect = higher value unless noted; max fold increase: dose 10, library dosed in µg/mL, stronger effect = higher value unless noted; outcome: library dosed in µg/mL unless noted
Compound,viability [1],fold increase [2],outcome [2],min viability [1],max fold increase [2]
Clc1ccc(-n2nnnc2SCCCc2nc3ccccc3o2)cc1,84%,0.85,inactive,–,–
Cc1nn(-c2ccccc2)c2c1CC(C#N)(c1nc3ccccc3s1)C1CCCN21 (stereo unspecified),89%,1.29,inactive,–,–
O=S(=O)(NCCc1ccc2c(c1)OCCO2)c1ccc2c(c1)CCC2,95%,0.9,inactive,–,–
C=CCn1c(SC(C)c2nnnn2-c2ccccc2)nnc1-c1ccoc1C (stereo unspecified),93%,1.01,inactive,–,–
Cc1nc(N2CCC(NS(C)(=O)=O)CC2)c2c3c(sc2n1)CCC3,85%,0.99,inactive,–,–
CS(=O)(=O)CCC(=O)Nc1nc2c(s1)CCC2,92%,1.13,inactive,–,–
O=S(=O)(c1ccc(S(=O)(=O)N(Cc2ccc3c(c2)OCO3)C2CCCC2)cc1)N1CCCC1,98%,0.96,inactive,–,–
CNC(=O)CN(C)c1ncnc2sc3c(c12)CCCC3,94%,1.01,inactive,–,–
Nc1nccnc1C(=O)N1CCN(c2nccs2)CC1,79%,1.03,inactive,–,–
CC[C@H](C)[C@H]1O[C@]2(CC[C@@H]1C)C[C@@H]1C[C@@H](C/C=C(\C)[C@@H](O[C@H]3C[C@H](OC)[C@@H](O[C@H]4C[C@H](OC)[C@@H](O)[C@H](C)O4)[C@H](C)O3)[C@@H](C)/C=C/C=C3\CO[C@@H]4[C@H](O)C(C)=C[C@@H](C(=O)O1)[C@]34O)O2,"25% [measured here: primary viability 25 uM, at 25 µM, library dosed in µM] and 48% [measured here: primary viability 25 uM, at 25 µM, library dosed in µM]","0.61 [measured here: primary screen single dose 25 uM, at 25 µM, library dosed in µM, stronger effect = higher value] and 0.72 [measured here: primary screen single dose 25 uM, at 25 µM, library dosed in µM, stronger effect = higher value]",inactive [library dosed in µM],–,–
COCCN1C(=O)C(=O)/C(=C(/O)c2ccccc2)C1c1cccc(Oc2ccccc2)c1 (stereo unspecified),106%,0.99,inactive,–,–
Cc1cc(C(=O)Cn2nnn(-c3cccs3)c2=O)c(C)n1CCc1cccs1,91%,0.85,inactive,–,–
O=C(CSc1nc(O)cc(=O)n1C1CCCC1)NC12CC3CC(CC(C3)C1)C2,85%,0.96,inactive,–,–
CCSc1nnc(SC(C)c2ccc(F)cc2)s1 (stereo unspecified),77%,0.8,inactive,–,–
O=C(CC1CC2CCC1C2)N1CCN(c2cnccn2)CC1 (stereo unspecified),83%,1,inactive,–,–
O=C(CC1CC2CCC1C2)Nc1cc(NC(=O)c2ccc3c(c2)OCO3)ccc1F (stereo unspecified),78%,0.79,inactive,–,–
CCc1nc2ccccc2n1CCOc1ccc(Br)cc1,81%,0.89,inactive,–,–
COc1cc(F)c(S(=O)(=O)Nc2ccc3c(c2)OC2(CCCCC2)O3)cc1OC,85%,0.93,inactive,–,–
CCN(CC)S(=O)(=O)c1cc2c(cc1Br)NC(=O)CO2,92%,1.02,inactive,–,–
CSCCSc1nnc(-c2ccccc2)n1-c1ccc(Cl)cc1,81%,0.92,inactive,–,–
C=CCn1c(C)cc(C(=O)COc2ccc3oc4c(c3c2)CCCC4)c1C,84%,0.97,inactive,–,–
N#CCSc1nc2sc3c(c2c(=O)n1C1CCCC1)CCCC3,80%,0.98,inactive,–,–
CCOC(=O)C1SC(SCc2cc(C(=O)OC)c(C)o2)=NC1=O (stereo unspecified),99%,1.01,inactive,–,–
CN1C(=O)C(=O)N(CCOc2ccc(Cl)cc2Br)C1=O,90%,0.98,inactive,–,–
Clc1ccc(-c2csc(NC3CC3)n2)cc1Cl,99%,0.91,inactive,–,–

Compound,viability [1],fold increase [2],outcome [2],min viability [1],max fold increase [2]
CC(c1nc(C(C)(C)C)no1)N1CCN(c2ccccc2F)CC1 (stereo unspecified),87%,0.89,inactive,–,–
CC(=O)c1c(C)[nH]c(C(=O)C(C)N2CCN(C(=O)C3CC3)CC2)c1C (stereo unspecified),78%,0.82,inactive,–,–
CS(=O)(=O)N1CCN(c2ccc(Br)cc2[N+](=O)[O-])CC1,103%,0.92,inactive,–,–
Cc1cc(C(=O)OC(C)C(N)=O)c(C)n1CC(F)(F)F (stereo unspecified),88%,1.05,inactive,–,–
Cc1cc(CN2CCN(CCS(=O)c3ccccc3)CC2)on1 (stereo unspecified),90%,1.09,inactive,–,–
C=CCn1c(-c2cccnc2)nn(CN2CCc3ccccc3C2)c1=S,111%,1.12,inactive,–,–
CN1N=C(C(=O)Nc2ccc3c(c2)OC2(CCCC2)O3)CCC1=O,92%,0.97,inactive,–,–
Cc1cc(C)n2nc(SCC(=O)c3ccc(Br)cc3)nc2n1,76%,0.93,inactive,–,–
CC1CCc2c(sc3nc(-c4cccnc4)nc(N4CCNC(=O)CC4)c23)C1 (stereo unspecified),84%,0.94,inactive,–,–
COc1ccc(C23CC4CC(CC(C(=O)OC5CCOC5=O)(C4)C2)C3)cc1 (stereo unspecified),108%,1.12,inactive,–,–
Cc1ccc(-c2nc(-c3ccc(C(C)(C)C)cc3)c(C)s2)cc1,96%,1.12,inactive,–,–
N#CC1(c2nc3ccccc3s2)Cc2cc([N+](=O)[O-])ccc2N2CCCCC21 (stereo unspecified),88%,1.17,inactive,–,–
CN1CCN(S(=O)(=O)c2ccc(Sc3ccc(Br)cc3)nc2)CC1,79%,0.92,inactive,–,–
CCCNC(=O)C(C)NC(=O)Cc1c(C)nc2nc(N)nn2c1C (stereo unspecified),99%,1.14,inactive,–,–
Cc1nn2c(nc(NC3CCCN(C)C3)c3ccccc32)c1Cl (stereo unspecified),72%,2.03,–,"70.3% [measured here: HeLa viability, alamarBlue, dose 10, library dosed in µg/mL]","1.32 [dose 0.039, library dosed in µg/mL, stronger effect = higher value] (inactive)"
O=c1oc2ccccc2n1CN1CCCC(O)C1 (stereo unspecified),85%,0.95,inactive,–,–
O=[N+]([O-])c1cc2c(c(CSc3nnnn3-c3ccc(Cl)cc3)c1)OCOC2,91%,1.01,inactive,–,–
CN(Cc1nc2ccsc2c(=O)[nH]1)C(=O)CCc1nnc(-c2ccsc2)o1,87%,1.17,inactive,–,–
N#Cc1c(/C=C/c2ccc3c(c2)OCCO3)cc(-c2cccc(Cl)c2)n2c1nc1ccccc12,99%,1.16,inactive,–,–
CC(C)CN1CC(C(=O)Nc2ccc3c(c2)OC2(CCCC2)O3)CC1=O (stereo unspecified),83%,1.08,inactive,–,–
O=C(OCc1cc(Cl)c2c(c1)OCO2)c1ccco1,90%,0.99,inactive,–,–
O=C(Cn1ncc(Cl)c(Cl)c1=O)N1CCNC1=O,78%,1.56,–,70%,3.11 (inactive)
CCOCCCNc1sc(S(C)(=O)=O)nc1S(=O)(=O)c1ccc(C)cc1,93%,1.05,inactive,–,–
CC(C#N)Sc1nnnn1-c1ccc(Cl)cc1 (stereo unspecified),98%,0.96,inactive,–,–
C=CCOc1ccccc1/C=C(/C#N)c1nc(N)nc(N(C)C)n1,85%,1.09,inactive,–,–

Compound,viability [1],fold increase [2],outcome [2],min viability [1],max fold increase [2]
N#Cc1ccc(/C=C2\CSc3ccccc3C2=O)cc1,56%,0.79,inactive,–,–
CC1(c2ccc3c(c2)OCO3)NC(=O)N(Cc2ccc3c(c2)OCO3)C1=O (stereo unspecified),100%,0.99,inactive,–,–
CS(=O)(=O)NC1CCN(CC(=O)NC2CC2)CC1,105%,1.17,inactive,–,–
S=c1n(CN(C2CCCC2)C2CC2)nc(N2CCOCC2)n1-c1ccccc1,102%,1.03,inactive,–,–
CC(C)N1C(=O)c2ccc(C(=O)Nc3ccc(I)cc3)cc2S1(=O)=O,92%,0.96,inactive,–,–
Cc1cnc(NC(=O)COCC2CC2)s1,100%,1.01,inactive,–,–
CCN1C(=O)c2ccccc2N2C(=O)CCC12C(=O)NC(C)c1ccc(F)cc1 (stereo unspecified),97%,0.96,inactive,–,–
CCC(C)(C)NCC(=O)N1c2ccccc2NC(=O)C1(C)C,93%,1.11,inactive,–,–
NC(=O)C1CCCN1S(=O)(=O)c1ccc(Cl)s1 (stereo unspecified),97%,1.06,inactive,–,–
Cn1ncc2c(NCC(=O)NC(C)(C)C)ncnc21,91%,1.05,inactive,–,–
CS(=O)(=O)c1ccc(Oc2ccc3c(c2)OCCO3)c([N+](=O)[O-])c1,92%,0.98,inactive,–,–
CCn1c(SCCS(=O)(=O)c2ccc(Br)cc2)nc2ccccc21,74%,0.65,inactive,–,–
CN1CCN(C(=O)C2CCN(C(=O)OCC(F)(F)F)CC2)c2nc3ccccc3nc21,85%,0.99,inactive,–,–
CN(C)S(=O)(=O)N1CCN(Cc2ccccc2CN2CCN(S(=O)(=O)N(C)C)CC2)CC1,94%,0.9,inactive,–,–
CS(=O)(=O)NC1CCCN(c2nc(-c3ccccc3)nc3ccccc23)C1 (stereo unspecified),91%,0.95,inactive,–,–
COc1cc(OC)cc(-c2nnc(SCCc3ccccc3)o2)c1,105%,0.99,inactive,–,–
FC(F)(F)c1cnc(Nc2ccc3c(c2)OCCO3)c(Cl)c1,81%,0.98,inactive,–,–
CC1CCC2(CC1)NC(=O)N(CN1CCC(C(=O)c3ccc4c(c3)OCCO4)CC1)C2=O (stereo unspecified),97%,1.04,inactive,–,–
O=C(OCCOc1ccc(Br)cc1)C1(c2cccc(F)c2)CCCC1,77%,0.97,inactive,–,–
C=CCn1c(C)cc(-c2csc(NC(=O)C3CC3)n2)c1C,93%,1.02,inactive,–,–
Cn1cc(C#N)c(=O)n(CC(=O)Nc2sccc2C(N)=O)c1=O,104%,1.07,inactive,–,–
O=S(=O)(Nc1ccc(Cl)c(S(=O)(=O)N2CCOCC2)c1)c1ccc2ccccc2c1,93%,1.11,inactive,–,–
Cc1cc(C(=O)COc2cc(C(F)(F)F)cc(C(F)(F)F)c2)c(C)n1Cc1ccc2c(c1)OCO2,90%,1.11,inactive,–,–
